According to US20090123452:

Target: Lys-plasminogen (UniProt P00747)

Q: Which results are given for “Wild type u-PA (purified two-chain enzyme)”?
A: Km: 6.03 µM; kcat: 70.1 s⁻¹; kcat/Km: 1.1e+07 M⁻¹ s⁻¹
